Experimental data as given in patent publication US7358243B2, “Diazabicyclonane and-decane derivatives and their use as opioid receptor ligands” (dated 2008).

Protein sequences, listed by entry. Tags and fused reporters are not part of them. Lines headed by an entry give the natural chain unless they say otherwise; changes in a name come on top.
UniProt P35372, whole entry, looked up: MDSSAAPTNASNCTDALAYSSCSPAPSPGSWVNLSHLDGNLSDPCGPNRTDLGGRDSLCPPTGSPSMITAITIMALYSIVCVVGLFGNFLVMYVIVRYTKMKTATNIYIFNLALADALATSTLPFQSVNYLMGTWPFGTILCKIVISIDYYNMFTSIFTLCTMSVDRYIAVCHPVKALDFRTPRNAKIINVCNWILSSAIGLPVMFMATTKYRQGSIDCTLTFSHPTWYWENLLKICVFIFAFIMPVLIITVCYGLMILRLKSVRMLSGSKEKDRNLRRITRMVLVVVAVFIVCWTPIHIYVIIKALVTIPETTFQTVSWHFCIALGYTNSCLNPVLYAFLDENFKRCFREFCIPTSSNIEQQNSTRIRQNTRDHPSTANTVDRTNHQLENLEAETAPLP
UniProt P41145: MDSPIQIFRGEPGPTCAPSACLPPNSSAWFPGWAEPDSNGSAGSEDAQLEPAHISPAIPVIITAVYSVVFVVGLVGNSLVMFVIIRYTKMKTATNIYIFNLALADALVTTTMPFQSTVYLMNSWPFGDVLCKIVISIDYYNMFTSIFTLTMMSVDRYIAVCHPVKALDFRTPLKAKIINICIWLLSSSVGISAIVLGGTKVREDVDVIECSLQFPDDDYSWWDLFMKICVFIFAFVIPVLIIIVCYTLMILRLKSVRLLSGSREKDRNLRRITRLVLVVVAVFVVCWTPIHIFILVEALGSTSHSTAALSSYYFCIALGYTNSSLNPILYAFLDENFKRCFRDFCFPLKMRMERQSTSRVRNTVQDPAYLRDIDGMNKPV

Tests used:
[1] = target: human recombinant opiate δ receptor (Homo sapiens, UniProt P41143); assay: Binding assay, human recombinant opiate δ receptor
[2] = target: human recombinant opiate μ receptor (Homo sapiens, UniProt P35372); assay: Binding assay, human recombinant opiate μ receptor; details: for Ki: read-out: μ Ki
[3] = target: human recombinant opiate κ receptor (Homo sapiens, UniProt P41145); assay: Binding assay, human recombinant opiate κ receptor
[4] = tested on: guinea pig ileum; assay: Functional activity in guinea pig ileum

Structure (SMILES)	δ inhib at 10 μM [1] [% inhib at 10 μM]	Ki [2] [µM]	κ inhib at 10 μM [3] [% inhib at 10 μM]	μ inhib at 100 nM ([2]; 100 nM) [% inhib at]	functional activity (agonist character) [4]	EC50 ([4]; read-out: EC50 functional activity) [µM]
CCC(=O)N1C2CCC3CCN(C/C=C/c4ccccc4)CC321 (racemic)	34	0.022	22			
CCC(=O)N1CCC2CCC(C1)N2CC=Cc1ccccc1 (racemic)	51	0.02	78			
CCC(=O)N1CCC2CCCC(C1)N2CC=Cc1ccccc1 (racemic)	35		74	63	full agonist	0.068
